Screening data from PubChem BioAssay.
GIV-Gai inh: inhibitors of GIV peptide binding to Galpha-i3, primary screen, biochemical, fluorescence polarization, FITC-GIV GBA peptide, rat Galphai3 | 90 min; stronger effect = lower value; scaled: aluminum fluoride 0%, vehicle 100% | AID 1224905, 2016 | 210,000 compounds, 0.42% hits | percent of control (FP), % (concentration not given with the values) | Guanine nucleotide-binding protein G(i) subunit alpha-3 (Rattus norvegicus), P08753;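 active = replicate mean at 85% of control or lower, very high polarization wells dropped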;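 note: wells of about 15 µL received 100 nL stock; the first replicate is given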
The depositor's hits bear a star. The sample as a whole holds a higher share of hits than the screen did.

By UniProt entry, the sequences of proteins in these tests, tags left out.
Guanine nucleotide-binding protein G(i) subunit alpha-3 (Rattus norvegicus), P08753, UniProt P08753, whole entry, looked up: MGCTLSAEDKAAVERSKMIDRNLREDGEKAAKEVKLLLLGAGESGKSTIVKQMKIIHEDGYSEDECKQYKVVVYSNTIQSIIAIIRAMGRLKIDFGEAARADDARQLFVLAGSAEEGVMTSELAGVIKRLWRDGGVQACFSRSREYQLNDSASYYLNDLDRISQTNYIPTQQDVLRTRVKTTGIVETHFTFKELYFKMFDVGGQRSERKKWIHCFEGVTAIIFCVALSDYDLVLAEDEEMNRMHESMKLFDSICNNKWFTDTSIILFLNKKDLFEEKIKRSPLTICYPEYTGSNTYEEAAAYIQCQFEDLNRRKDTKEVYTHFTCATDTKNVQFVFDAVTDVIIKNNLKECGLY

SMILES,GIV-Gai inh
Cc1ccc(N2C(=O)c3cc(C)nn3CC2(C)C(=O)NCc2ccc(F)cc2)cc1 (stereo unspecified),100.0
O=C(Nc1sc2c(c1C(=O)Nc1ccccc1)CCCCC2)c1ccccc1Cl,101.9
O=c1c2cnn(CCO)c2ncn1Cc1ccc(F)cc1,106.9
NC(=O)C1CCN(C(=O)c2ccccc2)CC1,101.8
CCC(=O)C1(Sc2nc3ccccc3[nH]2)CC(C)(C)OC1=O (stereo unspecified),103.1
COc1cccc(/C(O)=C/c2nc3ccc(C(=O)N4CCN(C5CCCCC5)CC4)cc3[nH]c2=O)c1,109.9
COc1ccc(/C(O)=C/c2nc3ccc(C(=O)N4CCN(c5cccc(C)c5C)CC4)cc3[nH]c2=O)cc1,116.0
COc1cccc(/C(O)=C/c2nc3ccc(C(=O)N4CCN(c5ccccn5)CC4)cc3[nH]c2=O)c1,54.9*
N#CC(C#N)C(CC(=O)c1ccccc1)c1ccccc1 (stereo unspecified),101.7
CCOC(=O)c1c(/N=C/c2c(O)n(C)c3ccccc23)sc(C)c1C,52.3*
CCOC(=O)c1c(/N=C/c2c(O)n(C)c3ccccc23)sc2c1CCC2,110.7
CCOC(=O)c1c(-c2cccs2)csc1NC(C)=O,104.8

Reformatted with each value named: part of the list above.
structure: N#CC(C#N)C(CC(=O)c1ccccc1)c1ccccc1 (stereo unspecified)
  GIV-Gai inh: 101.7
structure: CCOC(=O)c1c(/N=C/c2c(O)n(C)c3ccccc23)sc(C)c1C
  GIV-Gai inh: 52.3*
structure: CCOC(=O)c1c(/N=C/c2c(O)n(C)c3ccccc23)sc2c1CCC2
  GIV-Gai inh: 110.7
structure: CCOC(=O)c1c(-c2cccs2)csc1NC(C)=O
  GIV-Gai inh: 104.8

The list continues.
SMILES,GIV-Gai inh
CCOC(=O)c1c(-c2cccs2)csc1/N=C/c1c(O)n(C)c2ccccc12,44.5*
CCOC(=O)c1c(-c2cccs2)csc1NC=O,107.0
CCOC(=O)c1c(/N=C/c2ccc(N(C)C)cc2)sc(C)c1C,255.9
Cc1cc(C(=O)N2CCCC2c2cc(C)on2)on1 (stereo unspecified),109.3
Cc1ccccc1NC(=O)c1c(NC(=O)c2ccccc2Cl)sc2c1CCCCC2,102.7
COc1ccc(C2N(c3ccc(C(C)C)cc3)C(=O)N3CCCN23)cc1 (stereo unspecified),99.6
C=CCSc1nc2c(c(=O)[nH]1)C(c1ccccc1)C1=C(CCCC1=O)N2 (stereo unspecified),104.6
COc1ccc(-c2nn(CCC#N)cc2/C=N\NC(=O)c2ccccc2)cc1,100.4
O=C(CN(C(=O)c1ccc(Cl)nc1)c1ccccc1)NCC1CCCO1 (stereo unspecified),104.0
Cc1ccc2nc(Sc3ccccc3)c(/C=C3\SC(=S)N(C)C3=O)c(=O)n2c1,-36.2*
CN1C(=O)/C(=C/c2c(N(C)C)nc3ccccn3c2=O)SC1=S,288.9
CNc1nc2ccccn2c(=O)c1/C=C1\SC(=S)N(C)C1=O,138.3
C[n+]1cccc2ccc(O)cc21,-7.5*
CCCC1Oc2ccc([N+](=O)[O-])cc2C2OC(c3ccccc3)(c3ccccc3)c3ccccc3N12 (stereo unspecified),102.1
COc1ccc(CNC(=O)CN2CC(C)CC(C)C2)c(OC)c1 (stereo unspecified),102.7
CCS(=O)(=O)c1ccc(OCc2cc(=O)n3oc(C)cc3n2)c(NC(=O)COc2ccccc2F)c1,99.0
CCOC(=O)c1c(C)n(-c2ccccc2)c2c1cc(OC(=O)c1ccc(OC)cc1)c1ccccc12,107.0
CCOC(=O)Cn1cc(/C=C2\C(=O)NC(=O)N(c3ccc(Br)cc3)C2=O)c2ccccc21,111.9
CCOC(=O)Cn1cc(/C=C2\C(=O)NC(=S)N(c3cccc(Cl)c3Cl)C2=O)c2ccccc21,86.4
CCOC(=O)Cn1cc(/C=C2\C(=O)NC(=O)N(c3ccc(F)cc3)C2=O)c2ccccc21,-36.2*
Cn1c(SCc2ccc(F)cc2)nc2c(=O)[nH]cnc21,103.1
Oc1oc(-c2ccccc2)nc1C=Nc1ccc2ccccc2c1,100.9
CN(C)c1ccc(N=Cc2nc(-c3ccccc3)oc2O)cc1,-23.8*
Cc1ccc(-c2nc(C=Nc3ccc(C(=O)N(C)c4ccccc4)cc3)c(O)o2)cc1,115.5

Next results
| compound | GIV-Gai inh |
| --- | --- |
| COc1ccccc1C1CC(=O)Nc2c1c(C)nn2-c1nc(C)cc(C)n1 (stereo unspecified) | 98.6 |
| O=C(COc1ccccc1)OCN1C(=O)c2ccccc2C1=O | 104.7 |
| Cc1cccc(NC(=O)c2sc3nc(-c4cc5ccc(O)cc5oc4=O)[nH]c(=O)c3c2C)c1 | -66.0* |
| Cc1cc(C)cc(NC(=O)c2sc3nc(-c4cc5ccccc5oc4=O)[nH]c(=O)c3c2C)c1 | 98.4 |
| Cc1c(C(=O)Nc2cccc(F)c2)sc2nc(-c3cc4ccccc4oc3=O)[nH]c(=O)c12 | 96.9 |
| Cc1ccc2c(c1)-c1ccccc1S(=O)(=O)N2S(=O)(=O)c1ccccc1 | 110.4 |
| C=CCn1c(=O)c(=O)n(CC(=O)N2CCC(N3CCCCC3)CC2)c2ccccc21 | 106.0 |
| CN1/C(=C\C=C2\C(=O)Oc3ccccc3C2=O)C(C)(C)c2ccccc21 | -32.1* |
| CN1C(=O)C(Cc2ccccc2)(c2ccccc2)c2ccccc21 (stereo unspecified) | 106.1 |
| CN1/C(=C\C(=O)C(F)F)C(C)(C)c2ccccc21 | 103.1 |
| Cc1cc(=O)oc2oc3c(O)c(O)ccc3c12 | 107.5 |
| CN1/C(=C/C=C/c2oc3ccccc3[n+]2C)Oc2ccccc21 | -5.9* |
| CN1c2ccccc2Oc2nnc(Cl)cc21 | 103.6 |
| Cc1n[nH]c(=O)c2cc(S(=O)(=O)NC3CCCC3)cn12 | 99.9 |
| CN(C)c1ccc(/C=C/C(=O)/C=C/c2ccco2)cc1 | 6.8* |
| CN(C)c1ccc(/C=C/C(=O)/C=C/c2ccc3c(c2)OCO3)cc1 | -63.7* |
| O=C(/C=C/c1ccc2c(c1)OCO2)N1CCCCC1 | 98.8 |
| CC1CCN(C(=O)/C=C/c2ccc3c(c2)OCO3)CC1 | 102.8 |
| CC(C)(C)C(=O)/C=C/c1ccco1 | 135.3 |
| O=C(O)/C=C/c1ccco1 | 100.8 |
| CCCCNC(=O)CSc1nc2ccccc2n1S(=O)(=O)c1ccc(NC(C)=O)c(Cl)c1 | 108.0 |
| CN(C)c1cc(Nc2ccc(Cl)cc2)c2c3c(onc13)-c1ccccc1C2=O | 111.1 |
| CCNc1cc(N(C)C)c2noc3c2c1C(=O)c1ccccc1-3 | -21.2* |
| Cc1ccc(Nc2cc(N(C)C)c3noc4c3c2C(=O)c2ccccc2-4)cc1 | 114.6 |
| CC(C)CNc1cc(NC2CCCCC2)c2c3c(onc13)-c1ccccc1C2=O | 118.5 |
| CC1CCN(CCNc2cc(N(C)C)c3noc4c3c2C(=O)c2ccccc2-4)CC1 | -4.4* |
| CCOC(=O)N1CCN(c2cc(N3CCC(C)CC3)c3c4c(onc24)-c2ccccc2C3=O)CC1 | 121.1 |
| CN(Cc1ccccc1)C(=O)c1nn(C)c2c1CSc1ccc(F)cc1-2 | 99.5 |
| CSc1nnc(Cc2cc(=O)[nH]c(=O)[nH]2)n1-c1ccccc1 | 104.9 |
| O=C(NCc1csc(-c2ccccc2)n1)[C@H]1CSCN1C(=O)c1ccccc1Cl | 104.1 |
| C(#Cc1ccccc1)CNCc1ccc2c(c1)OCO2 | 100.6 |
| CCCS(=O)(=O)N1CCOc2ccc(COCc3ccc(F)cc3)cc2C1 | 101.2 |
| Cc1nnc(NC(=O)c2ccc(S(=O)(=O)N(CC(C)C)CC(C)C)cc2)o1 | 102.1 |
| CCC(C)NC(=O)CN1C(=O)CCn2nc(C)cc21 (stereo unspecified) | 101.8 |
| Cc1[nH]c(=O)[nH]c(=O)c1S(=O)(=O)N1c2ccc(F)cc2CCC1C (stereo unspecified) | 99.6 |
| Cc1[nH]c(=O)[nH]c(=O)c1S(=O)(=O)N1c2ccccc2CC1C (stereo unspecified) | -73.1* |
| CC1Cc2ccccc2N1S(C)(=O)=O (stereo unspecified) | 101.0 |
| Cn1c(CC(=O)Nc2ccc(Cl)cc2)nnc1SCc1nc2ccccc2c(=O)[nH]1 | 106.5 |
| CC(C)c1nnc(-c2ccc(S(=O)(=O)NC3CCCCCC3)o2)o1 | 105.2 |
| CC(=O)NCCc1nc2ccccc2n1C | 104.0 |
| O=C1c2cccc3c(N4CCOCC4)ccc(c23)C(=O)N1c1ccccc1 | 94.0 |

Arranged by count of non-hydrogen atoms (descending): 3 of the compounds above
| compound | GIV-Gai inh |
| --- | --- |
| CCCS(=O)(=O)N1CCOc2ccc(COCc3ccc(F)cc3)cc2C1 | 101.2 |
| Cc1[nH]c(=O)[nH]c(=O)c1S(=O)(=O)N1c2ccccc2CC1C (stereo unspecified) | -73.1* |
| C(#Cc1ccccc1)CNCc1ccc2c(c1)OCO2 | 100.6 |
